Results from PubChem BioAssay (NCI).
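Assay format: 96-well plates, 48-hour exposure. Abbreviation: GI50, concentration required for 50% inhibition of growth. TGI denotes the concentration required for complete inhibition of growth.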

Assays:
Experiment in all cases: NCI anticancer screen, dose series, 48 h
U251 CNS = system: U251 CNS
EKVX NSCLC = system: EKVX NSCLC
KM12 colon = system: KM12 colon
NCI-H322M lung = system: NCI-H322M lung
RXF 393 renal = system: RXF 393 renal
HOP-92 NSCLC = system: HOP-92 NSCLC
LOX IMVI melanoma = system: LOX IMVI melanoma
786-0 renal = system: 786-0 renal
HCT-116 colon = system: HCT-116 colon
SF-539 CNS = system: SF-539 CNS
ACHN renal = system: ACHN renal
M14 melanoma = system: M14 melanoma
DU-145 prostate = system: DU-145 prostate
COLO 205 colon = system: COLO 205 colon
OVCAR-5 ovarian = system: OVCAR-5 ovarian
NCI/ADR-RES ovarian = system: NCI/ADR-RES ovarian
SW-620 colon = system: SW-620 colon
SF-295 CNS = system: SF-295 CNS
SK-OV-3 ovarian = system: SK-OV-3 ovarian
HCT-15 colon = system: HCT-15 colon
A549 NSCLC = system: A549 NSCLC
HT29 colon = system: HT29 colon
OVCAR-8 ovarian = system: OVCAR-8 ovarian
IGROV1 ovarian = system: IGROV1 ovarian
UACC-62 melanoma = system: UACC-62 melanoma
HS 578T breast = system: HS 578T breast
MOLT-4 leukemia = system: MOLT-4 leukemia
MALME-3M melanoma = system: MALME-3M melanoma
SR leukemia = system: SR leukemia
NCI-H460 lung = system: NCI-H460 lung
SK-MEL-5 melanoma = system: SK-MEL-5 melanoma
CCRF-CEM leukemia = system: CCRF-CEM leukemia
SF-268 CNS = system: SF-268 CNS
NCI-H226 lung = system: NCI-H226 lung
SN12C renal = system: SN12C renal
SK-MEL-28 melanoma = system: SK-MEL-28 melanoma
A498 renal = system: A498 renal
SNB-19 CNS = system: SNB-19 CNS
HL-60(TB) leukemia = system: HL-60(TB) leukemia
K-562 leukemia = system: K-562 leukemia
UO-31 renal = system: UO-31 renal
OVCAR-3 ovarian = system: OVCAR-3 ovarian
MDA-MB-231 breast = system: MDA-MB-231 breast
NCI-H522 lung = system: NCI-H522 lung
MDA-N = system: MDA-N
TK-10 renal = system: TK-10 renal
OVCAR-4 ovarian = system: OVCAR-4 ovarian
RPMI-8226 leukemia = system: RPMI-8226 leukemia
NCI-H23 lung = system: NCI-H23 lung
UACC-257 melanoma = system: UACC-257 melanoma
PC-3 prostate = system: PC-3 prostate
CAKI-1 renal = system: CAKI-1 renal
MCF7 breast = system: MCF7 breast
T-47D breast = system: T-47D breast
SNB-75 CNS = system: SNB-75 CNS
HCC-2998 colon = system: HCC-2998 colon
SK-MEL-2 melanoma = system: SK-MEL-2 melanoma
HOP-62 NSCLC = system: HOP-62 NSCLC
MDA-MB-435 = system: MDA-MB-435

NNc1nc2nonc2nc1NN
GI50 (U251 CNS): 40.6 µM | TGI (U251 CNS): > 100 µM | GI50 (EKVX NSCLC): 20.9 µM | TGI (EKVX NSCLC): 58.9 µM | GI50 (KM12 colon): 46.2 µM | TGI (KM12 colon): > 100 µM | GI50 (NCI-H322M lung): 38.3 µM | TGI (NCI-H322M lung): > 100 µM | GI50 (RXF 393 renal): > 100 µM | TGI (RXF 393 renal): > 100 µM | GI50 (HOP-92 NSCLC): 54.9 µM | TGI (HOP-92 NSCLC): > 100 µM | GI50 (LOX IMVI melanoma): 31.5 µM | TGI (LOX IMVI melanoma): 94 µM | GI50 (786-0 renal): 23.9 µM | TGI (786-0 renal): 72.2 µM | GI50 (HCT-116 colon): 28.8 µM | TGI (HCT-116 colon): > 100 µM | GI50 (SF-539 CNS): 64.1 µM | TGI (SF-539 CNS): > 100 µM | GI50 (ACHN renal): 43.5 µM | TGI (ACHN renal): > 100 µM | GI50 (M14 melanoma): 27.9 µM | TGI (M14 melanoma): > 100 µM | GI50 (DU-145 prostate): 32.7 µM | TGI (DU-145 prostate): > 100 µM | GI50 (COLO 205 colon): 23.4 µM | TGI (COLO 205 colon): 64.8 µM | GI50 (OVCAR-5 ovarian): 42.2 µM | TGI (OVCAR-5 ovarian): > 100 µM | GI50 (NCI/ADR-RES ovarian): 23 µM | TGI (NCI/ADR-RES ovarian): 69.8 µM | GI50 (SW-620 colon): 39.3 µM | TGI (SW-620 colon): > 100 µM | GI50 (SF-295 CNS): > 100 µM | TGI (SF-295 CNS): > 100 µM | GI50 (SK-OV-3 ovarian): > 100 µM | TGI (SK-OV-3 ovarian): > 100 µM | GI50 (HCT-15 colon): 33.3 µM | TGI (HCT-15 colon): 78.9 µM | GI50 (A549 NSCLC): 42.8 µM | TGI (A549 NSCLC): > 100 µM | GI50 (HT29 colon): 27.8 µM | TGI (HT29 colon): 62.6 µM | GI50 (OVCAR-8 ovarian): 22.4 µM | TGI (OVCAR-8 ovarian): 49.2 µM | GI50 (IGROV1 ovarian): 21.8 µM | TGI (IGROV1 ovarian): 52.2 µM | GI50 (UACC-62 melanoma): 54.9 µM | TGI (UACC-62 melanoma): > 100 µM | GI50 (HS 578T breast): 73.4 µM | TGI (HS 578T breast): 98.6 µM | GI50 (MOLT-4 leukemia): 40.1 µM | TGI (MOLT-4 leukemia): > 100 µM | GI50 (MALME-3M melanoma): 25.8 µM | TGI (MALME-3M melanoma): 81.9 µM | GI50 (SR leukemia): 36.6 µM | TGI (SR leukemia): > 100 µM | GI50 (NCI-H460 lung): 33.5 µM | TGI (NCI-H460 lung): 71.2 µM | GI50 (SK-MEL-5 melanoma): 41.7 µM | TGI (SK-MEL-5 melanoma): 72.3 µM | GI50 (CCRF-CEM leukemia): 42.7 µM | TGI (CCRF-CEM leukemia): > 100 µM | GI50 (SF-268 CNS): 55.2 µM | TGI (SF-268 CNS): > 100 µM | GI50 (NCI-H226 lung): 31.8 µM | TGI (NCI-H226 lung): 94.8 µM | GI50 (SN12C renal): 40.7 µM | TGI (SN12C renal): 86.3 µM | GI50 (SK-MEL-28 melanoma): > 100 µM | TGI (SK-MEL-28 melanoma): > 100 µM | GI50 (A498 renal): > 100 µM | TGI (A498 renal): > 100 µM | GI50 (SNB-19 CNS): 61.4 µM | TGI (SNB-19 CNS): > 100 µM | GI50 (HL-60(TB) leukemia): 51.7 µM | TGI (HL-60(TB) leukemia): > 100 µM | GI50 (K-562 leukemia): 33.5 µM | TGI (K-562 leukemia): > 100 µM | GI50 (UO-31 renal): 40.4 µM | TGI (UO-31 renal): > 100 µM | GI50 (OVCAR-3 ovarian): 5.13 µM | TGI (OVCAR-3 ovarian): 58.5 µM | GI50 (MDA-MB-231 breast): 40.8 µM | TGI (MDA-MB-231 breast): 80.7 µM | GI50 (NCI-H522 lung): 10.5 µM | TGI (NCI-H522 lung): 27.2 µM | GI50 (MDA-N): 39 µM | TGI (MDA-N): > 100 µM | GI50 (TK-10 renal): > 100 µM | TGI (TK-10 renal): > 100 µM | GI50 (OVCAR-4 ovarian): 22.6 µM | TGI (OVCAR-4 ovarian): 45.4 µM | GI50 (RPMI-8226 leukemia): 43.2 µM | TGI (RPMI-8226 leukemia): 97 µM | GI50 (NCI-H23 lung): 44.4 µM | TGI (NCI-H23 lung): 72.7 µM | GI50 (UACC-257 melanoma): 37.2 µM | TGI (UACC-257 melanoma): > 100 µM | GI50 (PC-3 prostate): 32.1 µM | TGI (PC-3 prostate): > 100 µM | GI50 (CAKI-1 renal): 74.6 µM | TGI (CAKI-1 renal): > 100 µM | GI50 (MCF7 breast): 14.4 µM | TGI (MCF7 breast): 36.7 µM | GI50 (T-47D breast): 20.2 µM | TGI (T-47D breast): 60.5 µM | GI50 (SNB-75 CNS): > 100 µM | TGI (SNB-75 CNS): > 100 µM | GI50 (HCC-2998 colon): 52.8 µM | TGI (HCC-2998 colon): > 100 µM | GI50 (SK-MEL-2 melanoma): 75 µM | TGI (SK-MEL-2 melanoma): > 100 µM | GI50 (HOP-62 NSCLC): 78 µM | TGI (HOP-62 NSCLC): > 100 µM | GI50 (MDA-MB-435): 43.4 µM | TGI (MDA-MB-435): > 100 µM
